Assay results from paper PMC11081522, “In silico identification of a novel Cdc2‐like kinase 2 (CLK2) inhibitor in triple negative breast cancer” (Protein Science : A Publication of the Protein Society, 2024).

Protein sequences, listed by entry. Tags and fused reporters are not part of them.
UniProt P49760, whole entry: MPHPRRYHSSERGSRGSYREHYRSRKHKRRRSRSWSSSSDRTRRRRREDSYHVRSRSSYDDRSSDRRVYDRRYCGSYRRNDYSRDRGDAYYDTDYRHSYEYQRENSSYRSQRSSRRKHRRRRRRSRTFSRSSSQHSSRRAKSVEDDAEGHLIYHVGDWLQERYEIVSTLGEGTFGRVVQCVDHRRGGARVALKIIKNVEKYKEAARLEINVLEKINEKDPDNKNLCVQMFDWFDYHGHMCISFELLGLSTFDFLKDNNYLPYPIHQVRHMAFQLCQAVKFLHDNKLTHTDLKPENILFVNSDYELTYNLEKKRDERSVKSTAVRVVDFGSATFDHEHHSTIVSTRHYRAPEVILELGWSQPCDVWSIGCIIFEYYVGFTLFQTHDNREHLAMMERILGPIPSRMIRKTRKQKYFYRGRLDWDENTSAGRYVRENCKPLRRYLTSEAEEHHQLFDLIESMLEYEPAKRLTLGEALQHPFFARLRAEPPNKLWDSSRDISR

Target: CLK2 (Cdc2-like kinase 2) (Homo sapiens, UniProt P49760)
Test: Z'LYTE FRET peptide kinase assay
Details: read-out: CLK2 IC50; ATP and peptide substrate; 1% DMSO; room temperature, 60 min
Description: Z'LYTE FRET peptide kinase assay on CLK2 (Cdc2-like kinase 2)

pIC50: 5.75
Structure (SMILES): Cc1nc(Nc2ccccc2)c2c(-c3ccccc3)c[nH]c2n1

pIC50: −log10 of the molar value.
